Laboratory results published in patent publication US9862707B2, “TrkA kinase inhibitors, compositions and methods thereof” (Merck Sharp & Dohme Corp., priority 2014, dated 2018).
pIC50: −log10 of the molar value.

The chains behind the UniProt entries cited, without tags or fusion partners. Residues count along the entry.
UniProt P04629, 33-796: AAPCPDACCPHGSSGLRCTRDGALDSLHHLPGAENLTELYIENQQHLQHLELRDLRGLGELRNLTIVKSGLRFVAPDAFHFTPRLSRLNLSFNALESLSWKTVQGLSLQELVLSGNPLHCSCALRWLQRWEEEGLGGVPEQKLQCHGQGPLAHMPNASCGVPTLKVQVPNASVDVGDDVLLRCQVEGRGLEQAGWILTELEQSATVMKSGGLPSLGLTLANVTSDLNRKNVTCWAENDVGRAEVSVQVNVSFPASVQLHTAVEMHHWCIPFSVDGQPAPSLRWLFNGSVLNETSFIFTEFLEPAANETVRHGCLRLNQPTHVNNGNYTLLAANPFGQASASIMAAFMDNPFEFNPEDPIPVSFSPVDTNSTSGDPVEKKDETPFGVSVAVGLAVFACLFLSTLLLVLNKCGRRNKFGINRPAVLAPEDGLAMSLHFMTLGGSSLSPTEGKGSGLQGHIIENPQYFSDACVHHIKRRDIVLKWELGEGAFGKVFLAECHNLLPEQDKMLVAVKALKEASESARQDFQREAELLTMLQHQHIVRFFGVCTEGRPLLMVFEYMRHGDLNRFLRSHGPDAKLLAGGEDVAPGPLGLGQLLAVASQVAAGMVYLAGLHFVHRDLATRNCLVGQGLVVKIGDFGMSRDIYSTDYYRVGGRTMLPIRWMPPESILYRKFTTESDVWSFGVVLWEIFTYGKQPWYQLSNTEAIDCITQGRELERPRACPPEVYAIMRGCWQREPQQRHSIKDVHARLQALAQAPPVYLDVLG

molecular target: human TrkA receptor (Homo sapiens (Human), UniProt P04629); assay: TrkA functional activity, DiscoverX PathHunter assay; format: cell-based; details: U2OS cells expressing human TrkA-PK, Shc1-EA and p75NTR; compound 1 h, then NGF at ~80% of maximal response for 3 h; luminescence

| SMILES | pIC50 |
| --- | --- |
| Cn1ccc(-c2cc(C(=O)Nc3c4ccc(C(C)(O)CO)cc4nn3-c3ccccc3)ccc2C(F)(F)F)n1 (single isomer, unassigned) [Compound 62, N-(6-(1,2-Dihydroxypropan-2-yl)-2-phenyl-2H-indazol-3-yl)-3-(1-methyl-1H-pyrazol-3-yl)-4-(trifluoromethyl)benzamide, isomers A and B] | 8.31 |
| Cn1ccc(-c2cc(C(=O)Nc3c4ccc(C(C)(O)CO)cc4nn3-c3ccccc3)ccc2C(F)(F)F)n1 (single isomer, unassigned) [Compound 63, N-(6-(1,2-Dihydroxypropan-2-yl)-2-phenyl-2H-indazol-3-yl)-3-(1-methyl-1H-pyrazol-3-yl)-4-(trifluoromethyl)benzamide, isomers A and B] | 7.82 |
| CC(O)c1ccc2nn(-c3ccccc3)c(NC(=O)c3cc(-c4ncccn4)c(C(F)(F)F)cc3F)c2c1 (single isomer, unassigned; isomer a) [Compound 25, (R or S)-2-fluoro-N-(5-(1-hydroxyethyl)-2-phenyl-2H-indazol-3-yl)-5-(pyrimidin-2-yl)-4-(trifluoromethyl)benzamide, isomer A] | 7.92 |
| CC(O)c1ccc2nn(-c3ccccc3)c(NC(=O)c3cc(-c4ncccn4)c(C(F)(F)F)cc3F)c2n1 (single isomer, unassigned; isomer a) [Compound 27, (R or S)-2-fluoro-N-[5-(1-hydroxyethyl)-2-phenyl-2H-pyrazolo[4,3-b]pyridin-3-yl]-5-pyrimidin-2-yl-4-(trifluoromethyl)benzamide, isomer A] | 8.02 |
| CC(O)c1cc2nn(-c3ccccc3)c(NC(=O)c3cc(-c4ncccn4)c(C(F)(F)F)cc3F)c2cn1 (single isomer, unassigned; isomer a) [Compound 39, (R or S)-2-fluoro-N-[6-(1-hydroxyethyl)-2-phenyl-2H-pyrazolo[4,3-c]pyridin-3-yl]-5-pyrimidin-2-yl-4-(trifluoromethyl)benzamide, isomer A] | 7.72 |
| CC(O)c1ccc2nn(-c3ccccc3)c(NC(=O)c3cc(-c4ncccn4)c(C(F)(F)F)cc3F)c2c1 (single isomer, unassigned; isomer b) [Compound 26, (R or S)-2-fluoro-N-(5-(1-hydroxyethyl)-2-phenyl-2H-indazol-3-yl)-5-(pyrimidin-2-yl)-4-(trifluoromethyl)benzamide, isomer B] | 8.12 |
| CC(O)c1ccc2nn(-c3ccccc3)c(NC(=O)c3cc(-c4ncccn4)c(C(F)(F)F)cc3F)c2n1 (single isomer, unassigned; isomer b) [Compound 28, (R or S)-2-fluoro-N-[5-(1-hydroxyethyl)-2-phenyl-2H-pyrazolo[4,3-b]pyridin-3-yl]-5-pyrimidin-2-yl-4-(trifluoromethyl)benzamide, isomer B] | 7.82 |
| CC(C)(O)c1cnc2c(NC(=O)c3cc(-c4ncccn4)c(C(F)(F)F)cc3Cl)n(-c3ccccc3)nc2c1 [Compound 49, 2-chloro-N-[6-(1-hydroxy-1-methylethyl)-2-phenyl-2H-pyrazolo[4,3-b]pyridin-3-yl]-5-pyrimidin-2-yl-4-(trifluoromethyl)benzamide] | 8.34 |
